Assay [1] concerns Plasmodium falciparum. Description: Antimalarial activity against tightly synchronized Plasmodium falciparum K1 assessed as parasite stage accumulation index at trophozoites stages at 10 uM treated at 6 hrs post-invasion for continuous duration of 36 hrs by automated image mining based cytological profiling assay. Type of assay: functional. The essentials:
(§1)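 Tightly synchronized cultures exposed to 10 µM final from 6 hpi (early ring), 18 hpi (late ring) or 30 hpi (mid-trophozoite) for a continuous 36 h. Erythrocytes stained with WGA-AlexaFluor 488, parasite nuclei with DAPI, functional mitochondria with Mitotracker Red CMXRos. Stages (early rings, late rings, trophozoites, schizonts) classified by nuclear spot number and size. Viable parasitaemia and stage accumulation index obtained by automated image analysis.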

Assay [2] relates to Plasmodium falciparum. Nature of the assay: Antimalarial activity against tightly synchronized Plasmodium falciparum W2 assessed as parasite stage accumulation index at trophozoites stages at 10 uM treated at 18 hrs post-invasion for continuous duration of 36 hrs by automated image mining based cytological profiling assay. Type of assay: functional. The essentials:
as §1

Consider 1 molecule from ChEMBL document CHEMBL3352416, “Discovery of carbohybrid-based 2-aminopyrimidine analogues as a new class of rapid-acting antimalarial agents using image-based cytological profiling assay” (J Med Chem, 2014).

As to `CCN(CC)CCCC(C)Nc1ccnc2cc(Cl)ccc12` (configuration not stated) [CHLOROQUINE], the Activity stood at 1.11 in the assay with Plasmodium falciparum [1] and 1.12 with Plasmodium falciparum [2].
